{
  "source": "patent US7232798B2",
  "about": "“Neuroprotection and neuroegenisis by administering cyclic prolyl glycine” (priority 2001, dated 2007)",
  "origin": "cited, not measured here",
  "conditions": "administered intraperitoneally and intravenously; unpublished results; cited from earlier work",
  "data": [
    {"substance": "glycine-proline-glutamate [GPE]", "values": [
      {"measurement": "effect of high concentrations on the brain", "result": "severe brain damage"}
    ]}
  ]
}
